This note sets out measurements from patent US20100278776A1, “PHARMACEUTICAL COMPOSITIONS FOR MODULATING A KINASE CASCADE AND METHODS OF USE THEREOF” (Kinex Pharmaceuticals, LLC, priority 2007, published 2010).

Sequences of proteins named here, by UniProt entry; tags and fusion partners are left off.
UniProt O60674, whole entry: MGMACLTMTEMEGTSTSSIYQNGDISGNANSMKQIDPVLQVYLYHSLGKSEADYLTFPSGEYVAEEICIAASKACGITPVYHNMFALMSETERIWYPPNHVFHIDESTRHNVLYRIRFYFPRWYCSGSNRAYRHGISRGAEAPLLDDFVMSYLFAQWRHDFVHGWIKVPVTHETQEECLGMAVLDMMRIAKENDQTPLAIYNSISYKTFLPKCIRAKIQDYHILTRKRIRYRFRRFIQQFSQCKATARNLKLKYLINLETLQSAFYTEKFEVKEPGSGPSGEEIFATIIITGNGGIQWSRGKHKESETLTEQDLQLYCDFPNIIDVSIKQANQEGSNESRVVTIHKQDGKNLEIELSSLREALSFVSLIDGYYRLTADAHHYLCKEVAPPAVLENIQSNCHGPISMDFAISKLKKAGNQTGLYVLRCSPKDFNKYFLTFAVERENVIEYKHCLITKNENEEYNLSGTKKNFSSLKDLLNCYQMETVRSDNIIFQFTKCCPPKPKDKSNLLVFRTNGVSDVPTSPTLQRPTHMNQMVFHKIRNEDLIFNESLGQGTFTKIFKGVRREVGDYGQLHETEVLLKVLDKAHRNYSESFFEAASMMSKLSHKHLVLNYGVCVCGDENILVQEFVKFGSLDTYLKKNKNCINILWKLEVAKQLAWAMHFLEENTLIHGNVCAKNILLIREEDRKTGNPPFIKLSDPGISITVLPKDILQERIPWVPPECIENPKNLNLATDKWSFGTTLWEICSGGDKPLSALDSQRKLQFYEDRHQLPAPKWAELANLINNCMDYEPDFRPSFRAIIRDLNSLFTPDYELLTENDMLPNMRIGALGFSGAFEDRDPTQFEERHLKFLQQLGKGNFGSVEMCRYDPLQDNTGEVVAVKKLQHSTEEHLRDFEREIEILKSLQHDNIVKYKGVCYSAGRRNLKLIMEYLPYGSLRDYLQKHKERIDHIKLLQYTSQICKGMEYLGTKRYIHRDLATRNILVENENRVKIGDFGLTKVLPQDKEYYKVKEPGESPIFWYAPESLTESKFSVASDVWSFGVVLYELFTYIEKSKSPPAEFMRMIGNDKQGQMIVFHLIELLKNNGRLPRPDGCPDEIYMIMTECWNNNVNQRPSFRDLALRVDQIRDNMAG
UniProt P23458, whole entry: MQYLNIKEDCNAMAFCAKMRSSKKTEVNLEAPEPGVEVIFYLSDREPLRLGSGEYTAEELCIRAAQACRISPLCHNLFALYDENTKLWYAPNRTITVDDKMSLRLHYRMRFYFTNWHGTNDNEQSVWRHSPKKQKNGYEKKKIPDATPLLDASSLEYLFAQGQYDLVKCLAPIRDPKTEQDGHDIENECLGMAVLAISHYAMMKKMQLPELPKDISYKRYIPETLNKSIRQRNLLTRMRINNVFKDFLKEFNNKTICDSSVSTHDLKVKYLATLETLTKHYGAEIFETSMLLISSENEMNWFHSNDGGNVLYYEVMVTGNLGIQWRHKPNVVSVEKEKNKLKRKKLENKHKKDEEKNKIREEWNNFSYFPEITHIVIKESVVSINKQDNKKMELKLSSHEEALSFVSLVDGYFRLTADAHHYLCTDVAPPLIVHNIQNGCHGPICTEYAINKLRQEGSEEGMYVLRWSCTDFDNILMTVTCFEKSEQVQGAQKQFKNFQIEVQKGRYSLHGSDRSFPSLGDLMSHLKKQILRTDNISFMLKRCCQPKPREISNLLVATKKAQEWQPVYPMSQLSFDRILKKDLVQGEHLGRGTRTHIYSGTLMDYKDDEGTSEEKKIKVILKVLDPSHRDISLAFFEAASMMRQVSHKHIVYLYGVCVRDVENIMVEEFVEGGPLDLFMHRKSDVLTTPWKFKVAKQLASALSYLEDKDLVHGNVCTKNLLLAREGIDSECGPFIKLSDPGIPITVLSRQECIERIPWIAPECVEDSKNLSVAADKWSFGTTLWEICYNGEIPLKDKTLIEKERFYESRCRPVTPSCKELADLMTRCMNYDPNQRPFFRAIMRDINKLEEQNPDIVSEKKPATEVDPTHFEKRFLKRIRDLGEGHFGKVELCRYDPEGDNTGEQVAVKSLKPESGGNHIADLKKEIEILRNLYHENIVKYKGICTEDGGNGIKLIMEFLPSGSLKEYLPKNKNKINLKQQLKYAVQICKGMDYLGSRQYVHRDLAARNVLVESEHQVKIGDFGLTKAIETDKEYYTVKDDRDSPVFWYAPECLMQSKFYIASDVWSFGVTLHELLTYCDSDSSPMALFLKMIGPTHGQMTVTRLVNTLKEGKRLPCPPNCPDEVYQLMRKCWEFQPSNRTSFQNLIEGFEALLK

Usually IC50 stands for the concentration that inhibits the measured activity by half.

The target in series [1] is JAK2 Y1007/1008 (Homo sapiens, UniProt O60674). The series is described as follows: JAK2 phosphorylation in whole cells. The settings on record: listed as compound (I).
Series [2] deals with Src (Homo sapiens, UniProt P12931, Y530F). The experiment in a line: Src kinase activity in whole cells (auto- and transphosphorylation, PAGE/antibodies). In kind it is cell-based.
A short description of series [3]: 28-day toxicity study. The settings on record: dogs.
In series [4] the test system is FAK Y397. The series is described as follows: FAK autophosphorylation in whole cells. In kind it is cell-based. The note with it: c-Src527F/NIH3T3 cells.
For series [5], the system named is EGFR tyrosine kinase (EGF Y845). The experiment in a line: EGFR tyrosine kinase autophosphorylation in whole cells. In kind it is cell-based. The note with it: listed as compound (I).
Series [6] is described as follows: Oral dosing pharmacokinetics in dogs. It counts as in vivo.
Series [7] has as its system PC3-MM2 prostate cancer cells. The experiment in a line: Orthotopic prostate model for in vivo metastases. Details: species or system Nu/Nu mice. The settings on record: PC3-MM2 orthotopic mouse model.
Series [8] is described as follows: Pharmacokinetic characterization. The settings on record: mice, rats and dogs.
The target of series [9] is JAK1 Y1022/1023 (Homo sapiens, UniProt P23458). The experiment in a line: JAK1 phosphorylation in whole cells. The note with it: listed as compound (I).
For series [10], the system named is Caspase-3 cleavage. The series is described as follows: Induction of apoptosis via Caspase 3 cleavage. It counts as cell-based. The note with it: HT29 and c-Src527F/NIH-3T3 cells; listed as compound (I).

Where a name gives a salt, the structure may show the parent alone.

Regarding `O=C(Cc1ccc(-c2ccc(OCCN3CCOCC3)cc2)cn1)NCc1ccccc1` [Compound (I): 2HCl, 2-(5-(4-(2-morpholinoethoxy)phenyl)pyridin-2-yl)-N-benzylacetamide dihydrochloride salt], the “phosphorylation of JAK2 Y1007/1008” value in series [1] was “does not inhibit”. Also, the Src-Y416 autophosphorylation result in series [2] (c-Src527F/NIH-3T3 and HT29 cells) is given as “potent inhibitor”. Moreover, the “phosphorylation of Paxillin Y-31 (Src transphosphorylation substrate)” value in series [2] (c-Src527F/NIH-3T3 cells) is given as “inhibited Src trans-phosphorylation”. The IC50 in [2] (read-out: IC50 for Src-catalyzed transphosphorylation of FAK, Shc, paxillin and Src kinase autophosphorylation, tumor cells) was 20 nM. In series [2] (whole cells), the “phosphorylation of FAK Tyr 925 (Src transphosphorylation substrate)” value is “inhibited Src trans-phosphorylation” and the “phosphorylation of Shc Y239/240 (Src transphosphorylation substrate)” value was “inhibited Src trans-phosphorylation”. In addition, the “phosphorylation of Shc Y239/240 (Src transphosphorylation substrate)” value in series [2] (whole cells, listed as compound (I)) is given as “potent inhibitor”. The “finding considered potentially test article-related” value in series [3] (0.5 mg/kg/dose BID) is on record as “minimally to mildly increased alanine aminotransferase”. In [3] (28-day, oral gavage BID), this molecule displayed a minimal toxic level of 0.5 mg/kg/dose. Also, in series [4], the “FAK autophosphorylation (Y397)” value is listed as “no inhibition”. In series [5], the “EGFR tyrosine kinase autophosphorylation” value was “does not inhibit”. In [6], the half-life range was 5 to 8 h. Also, the “primary tumor growth and lymph node metastasis” value in [7] is given as “strong inhibition of both primary tumor growth as well as lymph node metastasis”. For the same molecule, the pharmacokinetic characterization entry in series [8] was “orally bioavailable and has dose-related increases in drug exposure and maximum plasma concentration”. Moreover, the “phosphorylation of JAK1 Y1022/1023” value in series [9] is “does not inhibit”. The “induction of apoptosis (Caspase-3 cleavage)” value in series [10] was “stimulate Caspase-3 and PARP cleavage”.
